The source of these data is ChEMBL document CHEMBL1140336, “Synthesis, structure-activity relationships, and biological evaluation of fatty alcohol phosphates as lysophosphatidic acid receptor ligands, activators of PPARgamma, and inhibitors of autotaxin” (J Med Chem, 2005).

Sequences of proteins named here, by UniProt entry; tags and fusion partners are left off. A change or cut given only in a name is not applied to a line headed by its entry.
UniProt Q92633: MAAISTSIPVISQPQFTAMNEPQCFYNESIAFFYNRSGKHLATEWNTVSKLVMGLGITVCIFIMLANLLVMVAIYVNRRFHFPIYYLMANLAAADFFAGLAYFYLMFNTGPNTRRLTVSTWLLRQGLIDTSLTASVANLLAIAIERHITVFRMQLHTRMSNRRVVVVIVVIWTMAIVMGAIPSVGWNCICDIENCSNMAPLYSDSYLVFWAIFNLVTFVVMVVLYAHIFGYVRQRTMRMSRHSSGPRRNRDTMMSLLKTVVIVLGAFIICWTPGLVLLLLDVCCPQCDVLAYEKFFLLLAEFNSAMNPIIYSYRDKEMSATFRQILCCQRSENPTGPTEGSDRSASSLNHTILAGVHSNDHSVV

Assay [1] has as its target T1, Lysophosphatidic acid receptor 1 (Homo sapiens, UniProt Q92633). In words: Binding affinity for Lysophosphatidic acid receptor 1 expressed in RH7777 rat hepatoma cells. Type of assay: cell-based. The gist of the method:
(§1)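 Fura-2 Ca2+ assay. RH7777 cells stably expressing LPA1, LPA2 or LPA3, or PC-3 cells (endogenous LPA1-3), seeded at 50000 cells/well on poly-D-lysine and grown overnight. Serum-starved in modified Krebs, pH 7.4, for 6-8 h (PC-3: 12 h), then Fura-2 AM loaded for 35 min. Compound added at 15 s; wells read 80-120 s. Transient taken as peak minus baseline 340/380 ratio. Antagonism: LPA 18:1 coapplied; highest concentration 30 μM.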

The target of assay [2] is T1, Lysophosphatidic acid receptor 1. In words: Inhibition of LPA-induced calcium transients in RH7777 rat hepatoma cells expressing LPA1 receptor. Type of assay: functional, cell-based. The gist of the method: as §1

As to `CC/C=C/CCCCCCCCCCOP(=O)(O)O`, affinity in assay [1] was put at a Ki of 0.457 µM. The IC50 in assay [2] stood at 2.2 µM.
For `CCCC/C=C/CCCCCCCCOP(=O)(O)O` the same measures were 1.15 µM and 3 µM.

Broadly, the Ki is a dissociation constant, usually derived from enzyme kinetics or from competition with a known ligand. The term IC50 denotes the point on the concentration scale where inhibition reaches its midpoint.
